# Values quoted from earlier work as cited in patent US20070173463A1, “Method and composition for treating otitis media” (priority 2006, published 2007).
# Details: topical use in the ear; cited from earlier work
substance,measurement,value
neomycin,toxicity for the inner ear (ototoxicity),scattered reports of ototoxicity
